Assay results published in patent US20150140123A1, “Protein expression analyses for identifying genotoxic compounds” (Merck Patent GmbH, priority 2012, published 2015).
Counter-ions that a name gives are not always drawn.

Tested on: HepG2 cells
Conditions: human
Procedure: HepG2 cells (Order No. HB-8065, Lot. 58483209, ATCC, Manassas, USA) were cultured in DMEM/F12 with L-Glutamine and 15 mM Hepes supplemented with 10% (v/v) FBS, 1% (v/v) penicillin (10 kU/ml)/streptomycin (10 mg/ml) solution, 0.1% (v/v) gentamicin (50 mg/ml), and 1 mM sodium pyruvate at 37° C. and 5% CO2 in culture flasks. Depending on the experiment, an appropriate number of cells were seeded onto plates after detaching of the cells using trypsin and cells were cultured at 37° C. and 5% CO2 for 24 h prior to treatment. All experiments were performed three times with cells of passages 4-20.
Cells were seeded onto black Poly-D-Lysin coated 96-well-plates (BD Biocoat, Franklin Lakes, USA) (0.02×10^6 cells/well) and left 24 h for adherence and then treated with test compounds at a maximum concentration of 1 mM which is recommended by the ICH S2(R1) guideline (EMA, 2011). For each compound, nine concentrations were tested with 2-fold serial dilutions. DMSO 1% (v/v) served as vehicle control for the experiments. The treatment procedure was different for direct-genotoxic and pro-genotoxic compounds. The treatment for direct genotoxic compounds was ongoing and was repeated daily over 48 h. Pro-genotoxic compounds were incubated for 6 h together with metabolic activation system (to limit the cytotoxic effect of the S9-mixture). After this period, cells were washed with cell media followed by 18-repeated daily over 48 h. The metabolic activation system used consisted of the following components and concentrations: 8 mM MgCl2, 32.8 mM KCl, 12 mM NADPH, 124 mM phosphate buffer and 2500 pmol/ml cytochrome P450 (CYP) content in the pre-mixture corresponding to 2.4 mM MgCl2, 9.8 mM KCl, 3.6 mM NADPH, 37.2 mM phosphate buffer, and 750 pmol/ml CYP as final concentrations after dilution 1:3.33 with cell culture media.
After treatment, cells were rinsed with PBS (Gibco Invitrogen, Karlsruhe, Germany), and then stained with 10 μM CellTracker Green 5-Chloromethylfluorescein Diacetate (CMFDA) (Invitrogen, Karlsruhe, Germany) in cell culture media for 30 min. CMFDA is per se non-fluorescent and is hydrolyzed by esterase in viable cells to a fluorescent-dye. The reaction with thiol groups leads to a cell-impermeable fluorescent-dye-adduct. The esterase activity can be used as an indicator for viability of cells (Papadopoulos et al., 1994, J Immunol Methods 177, 101-11). Afterwards, cells were washed with PBS and fixed with 3.7% Formaldehyde (Sigma-Aldrich, Taufkirchen, Germany) in PBS for 20 min. After that, cells were washed with PBS and blocked and permeabilized with 2% donkey serum (Millipore, Schwalbach, Germany) and 0.25% Triton X-100 (Sigma-Aldrich, Taufkirchen, Germany) in PBS for 30 min. Primary antibodies were diluted in Blocking/Permeabilization solution to final concentrations of 4 μg/ml anti-p-Chk1 (Ser345) goat polyclonal antibody IgG (santa cruz, Santa Cruz, USA), 4 μg/ml anti-p-ATM (Ser1981) mouse monoclonal antibody IgG1K (Millipore, Schwalbach, Germany) and added to the cells. After incubation for 16-18 h, cells were washed with 0.05% Tween 20 (Calbiochem, Darmstadt, Germany) in PBS, and the secondary antibody/16 μM Hoechst staining solution Blocking/Permeabilization solution was added. Secondary antibodies were diluted 1:400 (Alexa Fluor 555 donkey anti-goat, Alexa Fluor 647 donkey anti-mouse, Invitrogen, Karlsruhe, Germany). After an incubation of 1 h, followed by two additional washing steps with 0.05% Tween 20, cells were washed with PBS and finally PBS was added and cells were measured.
Image acquisition was performed on the ArrayScan VTI HCS Reader (Cellomics, Pittsburgh, USA) using a 20× objective. To detect enough cells, 50 images starting at the middle of each well were gathered.
• Channel 1: selected cell count per valid field • Channel 2: CMFDA cytoplasm average intensity • Channel 3: p-Chk1 (Ser345) nucleus average intensity • Channel 4: p-ATM (Ser1981) nucleus average intensity

Compound | CMFDA +S9 highest conc. <50% cytotox. over control [µM] | CMFDA −S9 highest conc. <50% cytotox. over control [µM] | SCC +S9 highest conc. <50% cytotox. over control [µM] | SCC −S9 highest conc. <50% cytotox. over control [µM]
[H]/N=C(/N)N/C(=N/[H])NCCc1ccccc1 [Phenformin HCl] | 1000 | 1000 | 1000 | 500
O=[N+]([O-])c1ccc(O)cc1 [p-Nitrophenol] | 1000 | 500 | 1000 | 500
